Assay results: article PMC3079430 (Journal of medicinal chemistry, 2010)

Experiments:
HL-60 promyelocytes = assay: HL-60 cell differentiation assay; format: cell-based; details: average ratio of the analog EC50 to the EC50 for 1α,25-(OH)2D3
[1] = test system: 24-hydroxylase gene reporter plasmid in rat osteosarcoma cells; assay: 24-hydroxylase transcription assay; details: average ratio of the EC50 for the analog to the EC50 for 1α,25-(OH)2D3

Question: What does the source list for `C=C1/C(=C\C=C2/CCC[C@]3(C)[C@@H]([C@H](C)CCCC(C)(C)O)CC[C@@H]23)C[C@@H](O)C[C@@H]1O` [Compound 1, 1α,25-Dihydroxyvitamin D3, reference compound]?
Answer: HL-60 differentiation ratio (HL-60 promyelocytes): 1; 24-OHase transcription ratio [1]: 1
